We go through 20 compounds from US9745339B2 (GRAFFINITY PHARMACEUTICALS GMBH, priority 2012, dated 2017).

For this assay, the system named is Bevacizumab. The experiment in a line: Microtiter plate chromatography of resins: binding and elution of Bevacizumab. The settings on record: fraction of bound Bevacizumab divided by fraction of bound HCP; truncated for values beyond 10. As for the experimental part:
Resins were assessed in packed mode by microtiter plate chromatography. For each column, approximately 30 μl of resin were transferred to a 384-well filter plate and sealed with appropriate top fits. Columns with rProtein A SEPHAROSE 4 FF and MABSORBENT A2P HF were included as controls.
Columns were equilibrated with 6.7 column volumes (cv) of phosphate buffered saline (0.15 M NaCl, 20 mM sodium phosphate, pH 7.3; PBS) prior to injection. Either 3.3 cv of whole IgGs dissolved at 0.5 mg ml^−1 in PBS or undiluted host cell proteins (HCP) were injected onto columns.
Unbound protein was washed from columns with 5 cv of PBS prior to elution with 5 cv of glycine buffer at pH 2.5. […] During injection of samples, speed was reduced to 10 g and centrifugation time increased to 5-10 min. Effluent fractions were collected in 384-well plates and concentrations of protein were analyzed by Bradford assay. Protein masses mi, mft and me (see below) were calculated as the product of fraction volume and measured protein concentration.
The fraction of bound protein was calculated as the difference between the total mass of protein injected mi and the mass of protein detected in the flowthrough mft, divided by the total mass of protein injected.
The yield of protein was calculated as the mass of protein eluted me, divided by the mass of protein injected mi.
The selectivity of resins was calculated as the fraction of bound Bevacizumab antibody BAb, divided by the fraction of bound host cell proteins BHCP.
The fraction of bound protein and the yield of protein were calculated for each resin based on data for whole IgG-antibodies. In the case of host cell proteins, only the fraction of bound protein is given. Selectivity of resins was calculated from data for Bevacizumab whole IgG and host cell proteins. Due to limited experimental precision, selectivity was truncated for values beyond 10.
Turning to `NCCOCCOCCn1cnc2cc(C(=O)Nc3nc(-c4ccccn4)cs3)ccc21`, the Selectivity was found to be 7.7.
On to `Cc1nc2cc(C(=O)Nc3nnc(-c4ccco4)s3)ccc2n1CCOCCOCCN`, for which the Selectivity turned out to be 10.0.
The value for `Cn1nc(C(=O)Nc2ccc3c(c2)ncn3CCCN)c2ccccc21` [Ligand L01, 1-(3-Amino-1-propyl)-5-[(1-methylindazol-3-yl)carboxamido]benzimidazole] was 3.0; that for `Cn1nc(NC(=O)c2ccc3c(c2)ncn3CCCN)c2ccccc21` [Ligand L02, 1-(3-Amino-1-propyl)benzimidazole-5-carboxylic acid N-(1-methyl-3-indazolyl) amide] was 3.6.
For `NCCCn1cnc2cc(C(=O)Nc3nnc(-c4ccco4)s3)ccc21` [Ligand L05, 1-(3-Amino-1-propyl)benzimidazole-5-carboxylic acid N-[5-(2-furyl)-1,3,4-thiadiazol-2-yl]amide], the Selectivity is on record as 5.9.
`CCc1nnc(NC(=O)c2ccc3c(c2)ncn3CCCN)s1` [Ligand L07, 1-(3-Amino-1-propyl)benzimidazole-5-carboxylic acid N-(2-ethyl-1,3,4-thiadiazol-5-yl) amide] came in with a Selectivity of 4.3.
The value for `NCCCn1cnc2cc(C(=O)Nc3nncs3)ccc21` [Ligand L13, 1-(3-Amino-1-propyl)benzimidazole-5-carboxylic acid N-(1,3,4-thiadiazol-2-yl) amide] was 4.8; that for `Cc1nnc(NC(=O)c2ccc3c(c2)ncn3CCCN)s1` [Ligand L14, 1-(3-Amino-1-propyl)benzimidazole-5-carboxylic acid N-(2-methyl-1,3,4-thiadiazol-5-yl) amide] was 6.3; that for `NCCCNc1ccc(C(=O)Nc2nnc(-c3ccco3)s2)cn1` [Ligand L19, 6-[(3-Amino-1-propyl)amino]nicotinic acid N-[5-(2-furyl)-1,3,4-thiadiazol-2-yl]amide] was 7.1.
The same measure for `NCCCn1cnc2cc(C(=O)Nc3nc(-c4ccccn4)cs3)ccc21` [Ligand L23, 1-(3-Amino-1-propyl)benzimidazole-5-carboxylic acid N-[4-(2-pyridyl)thiazol-2-yl] amide]: 7.7; for `NCCCn1cnc2cc(NC(=O)c3cn4ccsc4n3)ccc21` [Ligand L30, 1-(3-Amino-1-propyl)-5-[(imidazo-[2,1-b]thiazol-6-yl)carboxamido]benzimidazole]: 4.8.
`Cn1c(CCCCCN)nc2cc(C(=O)Nc3nnc(-c4ccco4)s3)ccc21` [Ligand L31, 2-(5-Amino-1-pentyl)-1-methylbenzimidazole-5-carboxylic acid N-[5-(2-furyl)-1,3,4-thiadiazol-2-yl]amide] gave a Selectivity of 5.0.
The same measure for `Cc1nsc(NC(=O)c2ccc3c(c2)ncn3CCCN)n1` [Ligand L36, 1-(3-Amino-1-propyl)benzimidazole-5-carboxylic acid N-(3-methyl-1,2,4-thiadiazol-5-yl) amide]: 10.0; for `NCCCNc1ccc(C(=O)Nc2nc(-c3ccccn3)cs2)cn1` [Ligand L40, 6-[(3-Amino-1-propyl)amino]nicotinic acid N-[4-(2-pyridyl)thiazol-2-yl] amide]: 4.9.
In turn, `Cc1nc2cc(C(=O)Nc3nc(-c4ccccn4)cs3)ccc2n1CCCN` [Ligand L42, 1-(3-Amino-1-propyl)-2-methylbenzimidazole-5-carboxylic acid N-[4-(2-pyridyl)thiazol-2-yl] amide] returned a Selectivity of 7.4.
The value for `CCc1nc2cc(C(=O)Nc3nc(-c4ccccn4)cs3)ccc2n1CCCN` [Ligand L43, 1-(3-Amino-1-propyl)-2-ethylbenzimidazole-5-carboxylic acid N-[4-(2-pyridyl)thiazol-2-yl] amide] was 5.6; that for `CCc1nc2cc(C(=O)Nc3nnc(-c4ccco4)s3)ccc2n1CCCN` [Ligand L44, 1-(3-Amino-1-propyl)-2-ethylbenzimidazole-5-carboxylic acid N-[5-(2-furyl)-1,3,4-thiadiazol-2-yl] amide] was 6.3; that for `NCCCn1cnc2cc(C(=O)Nc3nc(-c4cccnc4)cs3)ccc21` [Ligand L46, 1-(3-Amino-1-propyl)benzimidazole-5-carboxylic acid N-[4-(3-pyridyl)thiazol-2-yl] amide] was 5.9.
The same measure for `NCCCn1cnc2cc(C(=O)Nc3nc(-c4ccncc4)cs3)ccc21` [Ligand L47, 1-(3-Amino-1-propyl)benzimidazole-5-carboxylic acid N-[4-(4-pyridyl)thiazol-2-yl] amide]: 7.7; for `Cc1nc2cc(C(=O)Nc3nc(-c4ccncc4)cs3)ccc2n1CCCN` [Ligand L51, 1-(3-Amino-1-propyl)-2-methylbenzimidazole-5-carboxylic acid N-[4-(4-pyridyl)thiazol-2-yl] amide]: 6.7.
